Here are results for one molecule from patent US9873693B2 (Sunesis Pharmaceuticals, Inc., priority 2006, dated 2018).

In one experiment the test system is phospho-akt (Thr308). Kind of experiment: phospho-akt (Thr308) MSD ELISA in PC-3 cells. The class given is cell-based.
The subject of a further experiment is Phospho-T308 Akt. Nature of the experiment: Phospho-T308 Akt detection using immunoblot (western blot) in PC-3 cells. For orientation: A western blot detects proteins with antibodies after separation by electrophoresis.

As to `CN(C)C(=O)CCC(NC(=O)c1cccn(Cc2ccc(F)c(F)c2)c1=O)c1nc(-c2c[nH]c3ncccc23)cs1` (stereo not shown), the “Percent Inhibition of phospho-Akt (308) By MSD ELISA” value with phospho-akt (Thr308) (at 1 μM) is “d (inhibition of less than 25%)”; in the experiment with phospho-akt (Thr308) (at 10 μM), “dd (inhibition of from 25% to 75%)”. The “Reduction of Cellular Levels of Akt p308 By Western” value with Phospho-T308 Akt (2 hour incubation, concentration not given in Table 2) is “bb (inhibition of from 25% to 75%)”. Also, in the experiment on Phospho-T308 Akt (at 5 μM), the “Percent Inhibition of phospho-Akt (308) By Western” value is listed as 5 μM = dd (inhibition of from 25% to 75%).
